Experimental data from US20140249076A1 (AstraZeneca / MedImmune, published 2014).

Protein sequences, listed by entry. Tags and fused reporters are not part of them. Residues count along the entry.
UniProt Q16602, 23-461, chain 1 of 2: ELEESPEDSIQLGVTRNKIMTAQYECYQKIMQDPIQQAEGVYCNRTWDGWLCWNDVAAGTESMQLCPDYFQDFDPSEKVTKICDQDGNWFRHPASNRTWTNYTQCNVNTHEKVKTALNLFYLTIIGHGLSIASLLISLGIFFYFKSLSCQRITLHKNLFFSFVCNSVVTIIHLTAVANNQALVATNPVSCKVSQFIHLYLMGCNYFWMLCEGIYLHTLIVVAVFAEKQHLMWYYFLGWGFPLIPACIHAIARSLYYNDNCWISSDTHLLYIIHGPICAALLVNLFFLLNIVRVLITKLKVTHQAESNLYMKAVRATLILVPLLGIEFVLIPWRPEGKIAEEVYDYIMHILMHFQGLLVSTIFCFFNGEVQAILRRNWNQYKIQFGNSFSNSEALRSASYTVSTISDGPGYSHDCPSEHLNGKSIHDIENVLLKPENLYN
UniProt O60894, 27-148, chain 2 of 2: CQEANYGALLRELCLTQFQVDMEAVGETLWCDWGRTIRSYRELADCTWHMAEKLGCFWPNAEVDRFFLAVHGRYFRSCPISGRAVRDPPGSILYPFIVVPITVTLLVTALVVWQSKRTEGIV

What was measured:
[1] = biological target: T1, amylin receptor (RNA membranes); assay: displacement of 125I-rat amylin from RNA membranes
T1 construct: Membrane preparation
Protocol: (§1) A variety of receptor binding and functional activity assays were conducted using the peptide conjugates described herein.
Dried glass fiber plates were combined with scintillant and counted on a multi-well Perkin Elmer scintillation counter, as well known in the art.

[2] = biological target: T2, CGRP receptor (SK-N-MC cell membranes) (UniProt Q16602; O60894, in part); assay: displacement of 125I-human CGRP from SK-N-MC cell membranes
T2 construct: whole, on cells
Protocol: as §1
Dried glass fiber plates were combined with scintillant and counted on a multiwell Perkin Elmer scintillation counter.

| IC50 [1] | IC50 [2] | Binder |
| --- | --- | --- |
| 87 nM |  | CNTATCVLGRLSQELHRLQTYPRTNVGSNTY (mPEG40KD on the N-terminal nitrogen; C-terminal amide) [Cmpd 151 (mPEG40KD-Cmpd 2)] |
|  | 3.8 nM | CNTATCVLGRLSQELHRLQTYPRTNVGSNTY (C-terminal amide, also called [desLys^1]-Cmpd 1) [Cmpd 2] |
| 17 nM |  | CNTATCVLGRLSQELHRLQTYPRTKVGSNTY (N-terminal acetyl; mPEG40KD on the side-chain amine of Lys 26 (Formula (I)/Cmpd 1 numbering; residue 25 of this chain); C-terminal amide, also called Acetyl-[desK^1, K^26(PEG40 KD)]-Cmpd 1) [Cmpd 169 (Acetyl-[K^26(mPEG40KD)]-Cmpd 2)] |
| 8.4 nM |  | CNTATCVLGRLSQELHRLQKYPRTNVGSNTY (N-terminal acetyl; mPEG40KD on the side-chain amine of Lys 21 (Formula (I)/Cmpd 1 numbering; residue 20 of this chain); C-terminal amide) [Cmpd 156 (Acetyl-[K^21(mPEG40KD)]-Cmpd 2)] |
